# Laboratory results from patent US12065622B2, “Ammonium-based ionic liquid and its use as a lubricant additive” (TOTALENERGIES ONETECH, priority 2020, dated 2024).
# Experiment: Solubility test in base oil
# Assay type: physicochemical
# Settings: lubricant composition of IL1 and base oil limpid after three months at room temperature (15-25° C.) and at 60° C.
# Protocol: In order to check that the ammonium-based ionic liquid is oil-soluble, the following test has been achieved:
# 100 mL of the lubricant composition comprising IL1 and the base oil is introduced into two reaction tubes. One of the tubes is maintained at room temperature (between 15 and 25° C.) and the other reaction tube is placed in an oven at 60° C.
# After three months, the lubricant composition of both reaction tubes was limpid.
substance,measurement,value
Tri-n-Octylmethylammonium 2-Ethylhexanoate [IL1],solubility in the base oil,soluble in the oil
